Measured values reported in paper PMC7865483, “Regulation of the CoA Biosynthetic Complex Assembly in Mammalian Cells” (International Journal of Molecular Sciences, 2021).

The chains behind the UniProt entries cited, without tags or fusion partners. Where a name states a change or a piece, a line headed by the entry shows the natural chain unless it says otherwise.
UniProt Q8TE04: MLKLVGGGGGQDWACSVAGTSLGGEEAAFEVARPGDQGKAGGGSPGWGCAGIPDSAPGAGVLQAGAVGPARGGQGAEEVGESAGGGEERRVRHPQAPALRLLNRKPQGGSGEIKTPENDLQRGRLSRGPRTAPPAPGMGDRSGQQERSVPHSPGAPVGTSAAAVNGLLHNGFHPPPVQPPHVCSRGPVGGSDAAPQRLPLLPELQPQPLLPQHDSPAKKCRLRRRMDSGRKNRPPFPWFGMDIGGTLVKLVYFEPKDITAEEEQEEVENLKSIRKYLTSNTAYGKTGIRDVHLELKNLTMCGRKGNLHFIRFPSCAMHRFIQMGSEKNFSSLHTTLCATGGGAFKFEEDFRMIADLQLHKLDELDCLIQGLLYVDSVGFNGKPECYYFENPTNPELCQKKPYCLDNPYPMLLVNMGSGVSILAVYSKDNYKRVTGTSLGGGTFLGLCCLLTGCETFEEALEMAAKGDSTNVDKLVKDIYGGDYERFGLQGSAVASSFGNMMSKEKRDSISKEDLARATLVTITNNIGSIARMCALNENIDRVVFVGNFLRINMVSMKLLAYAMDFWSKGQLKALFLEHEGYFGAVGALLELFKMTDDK

Molecular target: T1, Pank1 (pantothenate kinase 1), endogenous in A549 cells (human (endogenous in A549), UniProt Q8TE04 1-598)
T1 construct: pantothenate kinase 1, endogenous in the human lung cancer cell line A549; source: endogenous, A549 cells (fixed cells for PLA)
Assay: proximity ligation; in situ PLA (Duolink) on fixed A549 cells, endogenous proteins; cells serum-starved for 24 h, or serum-starved and then treated with 500 μM H2O2
Conditions: partners not purified

- fold increase of the PLA signal after stress treatments, against control conditions: ~10 fold
B1: 4′-phosphopantothenoylcysteine decarboxylase (PPCDC) (enzyme, human (endogenous in HEK293 and A549), UniProt Q96CD2 1-204, looked up)
chain: MEPKASCPAAAPLMERKFHVLVGVTGSVAALKLPLLVSKLLDIPGLEVAVVTTERAKHFYSPQDIPVTLYSDADEWEIWKSRSDPVLHIDLRRWADLLLVAPLDANTLGKVASGICDNLLTCVMRAWDRSKPLLFCPAMNTAMWEHPITAQQVDQLKAFGYVEIPCVAKKLVCGDEGLGAMAEVGTIVDKVKEVLFQHSGFQQS
